Values of other authors as cited in patent publication US20110200554A1, “THERAPEUTIC AGENT FOR HEPATITIS C” (priority 2008, published 2011).

Conditions: human, permissible dose 800 mg/mm^2 per oral administration every 4 hours; cited from earlier work

hydroxyurea [HU]
blood HU level: 2480 µmol/L
